Here are results for one molecule from ChEMBL document CHEMBL2177078, “New positron emission tomography (PET) radioligand for imaging σ-1 receptors in living subjects” (J Med Chem, 2012).

The species named for the experiment is Rattus norvegicus. The experiment is described as follows: Selectivity ratio of Ki for rat Sigma2 receptor to Ki for rat Sigma1 receptor.

Molecules are shown by their SMILES. Bounds are passed on as bounds.

With `CCCc1ccc2c(c1)sc(=O)n2CCN1CCCCCC1`, the Ratio Ki was above 1000.
